Assay [1] addresses T1, Lysyl oxidase homolog 2 (Homo sapiens) (UniProt Q9Y4K0).
T1 sequence (whole entry): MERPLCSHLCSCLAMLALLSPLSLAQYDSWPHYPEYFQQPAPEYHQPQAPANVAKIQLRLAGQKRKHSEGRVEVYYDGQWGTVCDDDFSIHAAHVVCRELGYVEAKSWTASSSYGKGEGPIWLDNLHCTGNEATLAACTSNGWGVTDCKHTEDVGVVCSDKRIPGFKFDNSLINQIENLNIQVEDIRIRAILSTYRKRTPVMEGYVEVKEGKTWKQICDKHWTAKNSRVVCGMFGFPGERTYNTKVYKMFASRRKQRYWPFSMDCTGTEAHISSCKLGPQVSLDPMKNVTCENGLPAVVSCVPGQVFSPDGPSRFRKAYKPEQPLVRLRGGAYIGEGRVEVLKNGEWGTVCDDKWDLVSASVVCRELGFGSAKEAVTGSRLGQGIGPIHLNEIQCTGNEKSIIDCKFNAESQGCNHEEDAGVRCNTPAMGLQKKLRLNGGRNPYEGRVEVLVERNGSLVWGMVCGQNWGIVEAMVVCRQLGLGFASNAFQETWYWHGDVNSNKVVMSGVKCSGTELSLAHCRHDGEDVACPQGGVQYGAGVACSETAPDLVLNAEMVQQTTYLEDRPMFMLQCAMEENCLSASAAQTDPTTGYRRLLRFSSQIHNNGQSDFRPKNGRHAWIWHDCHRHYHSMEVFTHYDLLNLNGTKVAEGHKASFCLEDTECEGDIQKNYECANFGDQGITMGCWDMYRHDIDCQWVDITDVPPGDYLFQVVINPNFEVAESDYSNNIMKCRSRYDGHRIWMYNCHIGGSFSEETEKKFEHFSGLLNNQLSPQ
Kind of assay: Inhibition of human LOXL2 expressed in CHO cells assessed as reduction of H2O2 production from oxidative deamination of DAP preincubated with enzyme followed by substrate addition measured every 2 mins for 1 hr by amplex red reagent-based fluorescence assay. It counts as cell-based. The procedure, abridged: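 Serum-free concentrated conditioned media from CHO cells stably expressing human LOXL2 used as enzyme source. Test compound preincubated 2 h with enzyme, then 1,5-diaminopentane (DAP) substrate added and released H2O2 measured. IC50 values are geometric means ×/÷ geometric standard deviation from at least 3 separate experiments.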

Assay [2] deals with T1, Lysyl oxidase homolog 2 (Homo sapiens). The assay can be described thus: Irreversible inhibition of human LOXL2 assessed as reduction of H2O2 production from oxidative deamination of DAP at 1000 times IC50 preincubated for 2 hrs followed by compound washout and subsequent incubation for 2 hrs prior to substrate addition measured every 2 mins for 40 mins by amplex red reagent-based fluorescence assay relative to control. In outline:
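Wells were washed repeatedly with PBS and equilibrated for 2 h. Recovered activity was then compared with nonwashed controls.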

Assay [3] shares this target. The assay can be described thus: Irreversible inhibition of human LOXL2 assessed as catalytic activity preincubated for 2 hrs followed by substrate addition measured every 2 mins for 1 hr by amplex red reagent-based fluorescence assay relative to control. Also on record: concentration or dose not given beside the values.

Experimental findings from ChEMBL document CHEMBL4049456, “Identification of 4-(Aminomethyl)-6-(trifluoromethyl)-2-(phenoxy)pyridine Derivatives as Potent, Selective, and Orally Efficacious Inhibitors of the Copper-Dependent Amine Oxidase, Lysyl Oxidase-Like 2 (LOXL2)” (J Med Chem, 2017) are described below.

As usually defined, the inhibition is the drop in the measured response relative to a control, in per cent.

For the compound `N#CCCN`, the values for the inhibition result in assay [1], in assay [2] and in assay [3] were “Tde”, 88% and 98%, respectively.
